{
  "source": "patent US9381683B2",
  "about": "“Films and methods of manufacture” (priority 2011, dated 2016)",
  "test": "Release of gentamicin from polymer sleeves on metal plates implanted in sheep",
  "settings": "within 24 hours after insertion, sleeve with 10% gentamicin, gentamicin exposed to the sleeve surface",
  "data": [
    {"substance": "gentamicin", "values": [
      {"measurement": "gentamicin released into the adjacent tissue", "value": "Approximately 50%"}
    ]}
  ]
}
